# scFv variants of Ab-14 (heavy chain) against a SARS-CoV-2 spike peptide

Target peptide (SARS-CoV-2 spike, HR2 region): PDVDLGDISGINAS

Ab-14 is the parent antibody, in scFv form: VH, then a (GGGGS)3 linker, then VL. The light chain is unchanged in all variants.
VH: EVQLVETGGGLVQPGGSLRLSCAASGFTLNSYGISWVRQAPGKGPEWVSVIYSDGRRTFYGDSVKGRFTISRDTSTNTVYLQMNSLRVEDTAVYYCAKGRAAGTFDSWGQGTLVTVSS
VL: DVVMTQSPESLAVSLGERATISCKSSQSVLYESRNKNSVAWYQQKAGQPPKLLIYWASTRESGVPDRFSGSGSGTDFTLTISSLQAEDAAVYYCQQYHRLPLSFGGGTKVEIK

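Variants in AAYL49 differ from the parent at up to three CDR positions; double and triple changes were sampled at random. AlphaSeq pools MATa yeast showing the antibodies with MATalpha yeast showing the peptide. Pairs that bind mate more often; barcode pairs of the diploids are counted by sequencing. Read counts were normalised to the haploid input and turned into Kd by a linear fit to BCL2-family pairs of known affinity, for each replicate. Mating was done three times.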

Sequences are complete VH domains. Numbers give log10(Kd / nM), so 0 is 1 nM and 3 is 1 µM. Smaller is tighter. A mean of the replicates is given; it leaves out those without a signal. An entry "nd" has no value in the source: the pair was not observed among the diploids in that replicate. This suggests poor binding but is not conclusive. Background: pairings of library AAYL49 with three empty control strains gave a value in 15% of cases (median 4.06, 5th percentile 2.83). Values in that range, when seen in few replicates, are hard to tell from nonspecific mating. For each scFv, signals with the empty controls are counted beside the result.

The variant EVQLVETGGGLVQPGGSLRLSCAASGFTLNSYGISWVRQAPGKGPEWVSVIYSHGRRTFGGDSVRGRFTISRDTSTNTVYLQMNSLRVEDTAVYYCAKGRAAGTFDSWGQGTLVTVSS gave nd, nd, nd (controls 0 of 9).
The variant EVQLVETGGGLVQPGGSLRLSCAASGFDLNSYGISWVRQAPGKGPEWVSVIYSDGRRTTYGDSVKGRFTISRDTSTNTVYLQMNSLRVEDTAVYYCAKGRAYGTFDSWGQGTLVTVSS gave 1.70, 1.87, 2.17 (mean 1.92; controls 0 of 9).
The variant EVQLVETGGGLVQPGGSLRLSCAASGFTLNSYGISWVRQAPGKGPEWVSVVYSDGRRTFYGDSVFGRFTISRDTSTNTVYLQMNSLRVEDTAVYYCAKGRAAGMFDSWGQGTLVTVSS gave nd, 4.25, 2.79 (mean 3.52; controls 1 of 9).
The variant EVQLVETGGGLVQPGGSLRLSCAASGFTLNSYWISWVRQAPGKGPEWVSVIYSCGRRTFYGDSVKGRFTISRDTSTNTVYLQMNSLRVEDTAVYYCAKGRAAGTFHSWGQGTLVTVSS gave nd, nd, nd (controls 0 of 9).
The variant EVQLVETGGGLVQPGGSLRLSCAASGFTLNYYGISWVRQAPGKGPEWVSVIYKDGRRTFYGDSFKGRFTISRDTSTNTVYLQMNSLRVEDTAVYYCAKGRAAGTFDSWGQGTLVTVSS gave nd, nd, nd (controls 0 of 9).
The variant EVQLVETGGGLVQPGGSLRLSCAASGFTLNSYWIVWVRQAPGKGPEWVSVIYSDGRRTFYGCSVKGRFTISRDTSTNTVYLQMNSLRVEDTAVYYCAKGRAAGTFDSWGQGTLVTVSS gave nd, nd, nd (controls 0 of 9).
The variant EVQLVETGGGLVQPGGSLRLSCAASGFTLNSYGISWVRQAPGKGPEWVSWIYSDGRRTFYGDSVKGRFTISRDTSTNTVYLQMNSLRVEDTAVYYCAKGRAADTFDSWGQGTLVTVSS gave nd, nd, nd (controls 0 of 9).
The variant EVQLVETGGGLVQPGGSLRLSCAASGFTLNSYMISWVRQAPGKGPEWVSVNYSDGRRTFYGDSVKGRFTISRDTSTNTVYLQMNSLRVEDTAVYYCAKGRAAATFDSWGQGTLVTVSS gave nd, nd, 2.69 (controls 0 of 9).
The variant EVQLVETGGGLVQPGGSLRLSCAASGFRLNFYGISWVRQAPGKGPEWVSVIYSFGRRTFYGDSVKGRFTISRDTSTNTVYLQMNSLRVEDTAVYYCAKGRAAGTFDSWGQGTLVTVSS gave nd, nd, nd (controls 1 of 9).
The variant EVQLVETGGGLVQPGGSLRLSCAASGFTPNSYGISWVRQAPGKGPEWVSVIYSDGARTFYGDSVKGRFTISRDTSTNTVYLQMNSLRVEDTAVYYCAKGRAAGTVDSWGQGTLVTVSS gave nd, 3.12, nd (controls 0 of 9).
The variant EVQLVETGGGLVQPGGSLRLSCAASGFTLNSYGISWVRQAPGKGPEWVSWIESDGRRTFYGPSVKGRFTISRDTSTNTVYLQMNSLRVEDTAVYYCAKGRAAGTFDSWGQGTLVTVSS gave nd, 3.36, nd (controls 0 of 9).
The variant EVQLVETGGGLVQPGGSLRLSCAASGFHLNSYGISWVRQAPGKGPEWVSVIYSDGRRNFCGDSVKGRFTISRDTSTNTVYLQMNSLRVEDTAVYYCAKGRAAGTFDSWGQGTLVTVSS gave 4.41, nd, 6.08 (mean 5.25; controls 3 of 9).
The variant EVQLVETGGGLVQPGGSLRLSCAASGFTLNSYGISWVRQAPGKGPEWVSVIYSDGDRTFYGDSVKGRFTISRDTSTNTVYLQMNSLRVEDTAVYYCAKGRASGPFDSWGQGTLVTVSS gave 3.50, nd, nd (controls 0 of 9).
The variant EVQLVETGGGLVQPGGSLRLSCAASGFTLNDYGISWVRQAPGKGPEWVSVIYSLGRRTFYGDQVKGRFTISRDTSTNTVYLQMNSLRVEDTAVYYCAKGRAAGTFDSWGQGTLVTVSS gave nd, 4.02, 5.17 (mean 4.60; controls 1 of 9).
The variant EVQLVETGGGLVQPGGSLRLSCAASYFTLNSYHISWVRQAPGKGPEWVSVIYSAGRRTFYGDSVKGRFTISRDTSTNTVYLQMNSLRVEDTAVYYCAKGRAAGTFDSWGQGTLVTVSS gave 4.18, 4.58, nd (mean 4.38; controls 2 of 9).
The variant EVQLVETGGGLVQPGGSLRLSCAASGFTLNSYGISWVRQAPGKGPEWVSVVYSDGRRPFYGDSVKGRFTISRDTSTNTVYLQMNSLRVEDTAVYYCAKGRAAGTVDSWGQGTLVTVSS gave nd, 3.93, 4.65 (mean 4.29; controls 1 of 9).
The variant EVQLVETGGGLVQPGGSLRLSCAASGFTLNSYGINWVRQAPGKGPEWVSPIYSDGRREFYGDSVKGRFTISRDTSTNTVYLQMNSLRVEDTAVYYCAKGRAAGTFDSWGQGTLVTVSS gave nd, nd, nd (controls 2 of 9).
The variant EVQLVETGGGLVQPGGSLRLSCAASHFTLFSYGISWVRQAPGKGPEWVSVIYSDGRRTFYGDSVKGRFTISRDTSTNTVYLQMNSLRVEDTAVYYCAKGRAAGTFDPWGQGTLVTVSS gave nd, 5.31, nd (controls 2 of 9).
The variant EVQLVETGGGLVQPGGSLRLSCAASGFTLNSYGISWVRQAPGKGPEWVSVIYQNGRRTFYGGSVKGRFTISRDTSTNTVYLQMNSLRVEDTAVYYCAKGRAAGTFDSWGQGTLVTVSS gave 4.21, nd, nd (controls 2 of 9).

A selection of 2 entries from above:

| VH | log10 Kd (nM) by replicate | log10 Kd (nM), mean | signal with controls |
|---|---|---|---|
| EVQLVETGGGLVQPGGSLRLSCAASGFTLNSYWIVWVRQAPGKGPEWVSVIYSDGRRTFYGCSVKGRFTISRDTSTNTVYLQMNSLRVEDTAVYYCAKGRAAGTFDSWGQGTLVTVSS | nd, nd, nd | nd | 0/9 |
| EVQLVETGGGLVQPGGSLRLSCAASGFTLNSYGISWVRQAPGKGPEWVSVIYSDGDRTFYGDSVKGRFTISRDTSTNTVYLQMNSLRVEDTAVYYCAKGRASGPFDSWGQGTLVTVSS | 3.50, nd, nd | 3.50 | 0/9 |

Source: Engelhart et al. 2022 (doi:10.1038/s41597-022-01779-4), MIT Lincoln Laboratory and A-Alpha Bio; data file from the FLAb repository.